Results: paper PMC3431306 (2012)

Target: CPSF6_(313–327) peptide (cleavage and polyadenylation specific factor 6, residues 313–327) (UniProt Q16630-2 313-327, N-terminal His tag omitted; strain not given, SIVmac Gag isolate Mm142-83 taken; CA residues 1-144 by alignment to HIV-1 CA 1-146 (CA N56 and N73 = precursor N191 and N208))
Experiment: ITC

B1: SIVmac CA N-terminal domain (CA^N) (domain or fragment)
chain: not shown
  Kd: 219 µM
